The text below walks through data of paper PMC10298982, “Stability Characterization of the Novel Anti-Cancer HM-10/10 HDL-Mimetic Peptide” (International Journal of Molecular Sciences, 2023).

Chains of the proteins cited; added tags and fusions are not shown.
UniProt P33261, whole entry: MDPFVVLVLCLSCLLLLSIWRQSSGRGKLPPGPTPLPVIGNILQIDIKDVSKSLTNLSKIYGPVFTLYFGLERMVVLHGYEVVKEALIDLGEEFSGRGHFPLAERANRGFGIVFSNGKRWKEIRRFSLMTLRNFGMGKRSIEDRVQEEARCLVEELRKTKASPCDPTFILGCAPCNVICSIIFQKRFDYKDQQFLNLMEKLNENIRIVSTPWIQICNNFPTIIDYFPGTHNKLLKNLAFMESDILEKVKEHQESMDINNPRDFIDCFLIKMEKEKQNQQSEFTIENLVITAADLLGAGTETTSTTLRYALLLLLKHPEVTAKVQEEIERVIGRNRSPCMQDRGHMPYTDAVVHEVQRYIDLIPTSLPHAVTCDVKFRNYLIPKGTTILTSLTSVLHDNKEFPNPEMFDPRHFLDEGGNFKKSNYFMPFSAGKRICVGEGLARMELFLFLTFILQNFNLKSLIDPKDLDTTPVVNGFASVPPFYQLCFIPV

For this data set, the target named is CYP2C19 (Homo sapiens, UniProt P33261). Briefly: CYP450 time-dependent inhibition, CYP2C19, pooled human liver microsomes. The conditions noted are these: read-out: IC50 (µM) PI + NADPH; Mephenytoin (2C19); PI + NADPH (30-min preincubation). (Microsomes from liver hold many membrane-bound enzymes, among them those of drug oxidation.)

SMILES strings stand for the structures.

Broadly, the IC50 is the concentration at which inhibition is half-maximal. Regarding `COc1ccc2[nH]c([S+]([O-])Cc3ncc(C)c(OC)c3C)nc2c1` (stereo not shown) [Omeprazole, omeprazole], the IC50 stood at 2.54 µM.
